Assay results: patent US20080009019A1, “HIGH THROUGHPUT METHOD FOR SCREENING CANDIDATE COMPOUNDS FOR BIOLOGICAL ACTIVITY” (SmithKline Beecham Corporation, priority 2001, published 2008)

By UniProt entry, the sequences of proteins in these tests, tags left out. Residues count along the entry.
UniProt P43220, 24-463: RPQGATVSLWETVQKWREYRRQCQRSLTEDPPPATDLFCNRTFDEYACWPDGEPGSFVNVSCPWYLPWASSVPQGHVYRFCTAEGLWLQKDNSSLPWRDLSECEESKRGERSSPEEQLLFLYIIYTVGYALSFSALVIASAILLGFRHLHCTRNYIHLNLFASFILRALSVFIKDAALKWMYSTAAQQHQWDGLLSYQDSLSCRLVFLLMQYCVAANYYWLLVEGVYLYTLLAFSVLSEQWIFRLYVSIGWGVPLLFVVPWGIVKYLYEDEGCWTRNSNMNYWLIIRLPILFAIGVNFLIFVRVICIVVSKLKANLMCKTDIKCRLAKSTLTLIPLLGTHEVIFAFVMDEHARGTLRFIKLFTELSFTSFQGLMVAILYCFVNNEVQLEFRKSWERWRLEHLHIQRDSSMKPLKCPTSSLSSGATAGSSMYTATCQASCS

Target: human glucagon-like peptide-1 (GLP-1) receptor (Homo sapiens, UniProt P43220)
Test: Agarose lawn reporter assay, CHO-6xCRE-luc+ cells expressing GLP-1 receptor
Type: cell-based
Conditions: approximately 10 nl of 5×10^−4 M to 1.5×10^−6 M peptide solution on lawn by HDR pin tool; 4 hours at 37° C.; FIGS. 6A-6B

Substance: glucagon-like peptide-1 [GLP-1]
- concentration-response curve of luminescence activity: concentration-response curve of luminescence activity was only observed when peptide was applied to the cell line expressing the appropriate receptor
